Test system: BCRP and P-gp
Details: 20 μM elacridar

Structure (SMILES): COc1cc2c(cc1OC)CN(CCc1ccc(NC(=O)c3cccc4c(=O)c5cccc(OC)c5[nH]c34)cc1)CC2 [elacridar]
- effect of inhibitor on directional transport of prazosin: the B-to-A transport of prazosin was decreased but the A-to-B transport was increased

From US20210340500A1, “METHOD FOR PRODUCING INTESTINAL CELLS FROM PLURIPOTENT STEM CELLS” (TOKYO INSTITUTE OF TECHNOLOGY, priority 2018, published 2021)
